Assay results reported in patent US9433687B2, “Anti-Notch3 antibodies and antibody-drug conjugates” (Pfizer Inc., priority 2012, dated 2016).
Values joined by “and” are separate entries in the source; they are usually repeats but may differ in a detail not shown here. Equal entries are not always repeated.

How the values were obtained:
[1] = system: OVCAR3 (ovarian cancer); experiment: In vitro cytotoxicity (MTS), OVCAR3; type: cell-based, human; details: Table 14; LP = lacked potency
Description: (§1) The effects of anti-Notch3 ADCs were assessed on 1) cell lines endogenously expressing Notch3 protein: HCC2429 (lung cancer), OVCAR3 (ovarian cancer) and MDA-MB-468 (breast cancer), 2) cell lines engineered to over-express full length human Notch3 protein: MDA-MB-468/hNotch3 and U2OS/hNotch3, and 3) a negative control cell line (SW900) using an MTS cellular viability indicator (Promega, Madison, Wis.). These cell lines were cultured with increasing concentrations of anti-Notch3 ADCs comprising rat-human chimeric anti-Notch3 antibodies, ch28 and ch75, and humanized anti-Notch3 antibodies, hu28 and hu75, conjugated to various linker-payload combinations of the present invention. As a specificity control for the anti-Notch3-ADCs, non-targeted control-ADCs (huNeg8.8-ADCs or ch2H6-ADCs) were also tested on the same cell lines. After four days, viability of each culture was assessed. IC50 values were calculated by logistic non-linear regression, model #203 with XL fit v4.2 (IDBS, Guildford, Surry, UK) and presented as ng Ab/mL. […]
(§2) This process generated the anti-Notch3 cysteine mutant ADCs: hu28-(L443C)-vc0101 and hu28-(L443C/κK183C)-vc0101. The activity of the anti-Notch3 cysteine mutant ADCs were assessed on cell lines endogenously expressing Notch3 protein: HCC2429 (lung cancer) and OVCAR3 (ovarian cancer) using an MTS cellular viability indicator as described in previous Examples.

[2] = system: N87 gastric xenografts; experiment: N87 gastric xenograft model; type: in vivo, mouse; details: for tumor volume: Table 27 study
Description: Similar in vivo experiments were performed with the N87 gastric cancer cell line as described above. To generate xenografts, nude (Nu/Nu) female mice were implanted subcutaneously with 8×10^6 N87 cells in 50% Matrigel (BD Biosciences).
The N87 gastric model was also dosed intravenously Q4d×4 with PBS vehicle, rat-human chimeric anti-Notch3 ADCs and control huNeg-8.8 ADCs, at a dose of 5 mg/kg as provided in FIG. 16D.
The N87 gastric model was also dosed intravenously Q4d×4 with PBS vehicle and rat-human chimeric anti-Notch3 ADCs ch28-mc0131, ch75-mc0131, ch28-m(H2O)c-0131 and ch75-m(H2O)c-0131 at a dose of 5 mg/kg as provided in FIG. 16E.

[3] = system: 37622A1 NSCLC patient-derived xenografts; experiment: 37622A1 patient derived NSCLC xenograft model; type: in vivo, mouse
Excerpt: The effects of anti-Notch3 ADCs were examined in immunodeficient mice on the in vivo growth of human tumor xenografts that were established from fragments of freshly resected 37622A1 NSCLC tumors obtained in accordance with appropriate consent procedures (Asterand). The 37622A1 NSCLC patient-derived xenografts were subcutaneously passaged in vivo as fragments from animal to animal in nude (Nu/Nu) female mice. When the tumors reached a volume of 150 to 300 mm^3, they were staged to ensure uniformity of the tumor size among various treatment groups. The 37622A1 NSCLC patient-derived xenografts model was dosed intravenously four times every four days (Q4d×4) with PBS vehicle, humanized anti-Notch3 ADCs, control huNeg-8.8 ADCs and cisplatin at the doses provided in Table 19.

[4] = system: HCC2429 (lung cancer); experiment: In vitro cytotoxicity (MTS), HCC2429; type: cell-based, human; details: Table 14; two individual repeats; LP = lacked potency
Description: as §1, §2

B1: hu75-vc0101: hu75 conjugated to vc0101 linker-payload (conjugate)
heavy: EVQLVESGGGLVQPGGSLRLSCAASGYAFTDYWMTWVRQAPGKGLEWVAEISPNSGGTNFNEKFKGRFTISVDNAKNSLYLQMNSLRAEDTAVYYCARGEIRYNWFAYWGQGTLVTVSSASTKGPSVFPLAPSSKSTSGGTAALGCLVKDYFPEPVTVSWNSGALTSGVHTFPAVLQSSGLYSLSSVVTVPSSSLGTQTYICNVNHKPSNTKVDKKV[letters of human IgG1 Fc omitted]
light: DIQMTQSPSSLSASVGDRVTITCKASQNVGNNIAWYQQKPGKAPKLLIYYASNRYTGVPSRFSGSGYGTDFTLTISSLQPEDFATYYCQRLYNSPFTFGGGTKVEIKRTVAAPSVFIFPPSDEQLKSGTASVVCLLNNFYPREAKVQWKVDNALQSGNSQESVTEQDSKDSTYSLSSTLTLSKADYEKHKVYACEVTHQGLSSPVTKSFNRGEC
In the case of B1, the “IC50 (ng Ab/mL), OVCAR3” value [1] is reported as 515 ng Ab/mL, the “animals that were tumor-free” value ([2]; by day 133, 5 mg/kg dose group, iv Q4dx4) is reported as 4 out of 9 and the tumor volume ([3]; Day 4, 3 mg/kg iv Q4dx4) is reported as 200 mm^3. The tumor volume ([3]; Day 7, 3 mg/kg iv Q4dx4) was 227 mm^3, the tumor volume ([3]; Day 11, 3 mg/kg iv Q4dx4) was 175 mm^3 and the tumor volume ([3]; Day 14, 3 mg/kg iv Q4dx4) was 156 mm^3. It also gave a tumor volume ([3]; Day 18, 3 mg/kg iv Q4dx4) of 112 mm^3, a tumor volume ([3]; Day 21, 3 mg/kg iv Q4dx4) of 122 mm^3 and a tumor volume ([3]; Day 25, 3 mg/kg iv Q4dx4) of 137 mm^3. The tumor volume ([3]; Day 28, 3 mg/kg iv Q4dx4) was 161 mm^3, the tumor volume ([3]; Day 32, 3 mg/kg iv Q4dx4) was 175 mm^3 and the tumor volume ([3]; Day 35, 3 mg/kg iv Q4dx4) was 271 mm^3. The tumor volume ([3]; Day 39, 3 mg/kg iv Q4dx4) was 319 mm^3, the tumor volume ([3]; Day 42, 3 mg/kg iv Q4dx4) was 357 mm^3 and the tumor volume ([3]; Day 46, 3 mg/kg iv Q4dx4) was 431 mm^3. The tumor volume ([3]; Day 49, 3 mg/kg iv Q4dx4) was 519 mm^3, the tumor volume ([3]; Day 53, 3 mg/kg iv Q4dx4) was 678 mm^3 and the tumor volume ([3]; Day 56, 3 mg/kg iv Q4dx4) was 818 mm^3. It also gave a tumor volume ([3]; Day 60, 3 mg/kg iv Q4dx4) of 710 mm^3, a tumor volume ([3]; Day 63, 3 mg/kg iv Q4dx4) of 824 mm^3 and a tumor volume ([3]; Day 67, 3 mg/kg iv Q4dx4) of 938 mm^3. For the same molecule, the tumor volume ([3]; Day 70, 3 mg/kg iv Q4dx4) was 953 mm^3, the tumor volume ([3]; Day -1, 3 mg/kg iv Q4dx4) was 185 mm^3 and the “IC50 (ng Ab/mL), HCC2429” value [4] was 611 ng Ab/mL and 3295 ng Ab/mL.

B2: hu75-vc6780 (conjugate)
heavy: EVQLVESGGGLVQPGGSLRLSCAASGYAFTDYWMTWVRQAPGKGLEWVAEISPNSGGTNFNEKFKGRFTISVDNAKNSLYLQMNSLRAEDTAVYYCARGEIRYNWFAYWGQGTLVTVSSASTKGPSVFPLAPSSKSTSGGTAALGCLVKDYFPEPVTVSWNSGALTSGVHTFPAVLQSSGLYSLSSVVTVPSSSLGTQTYICNVNHKPSNTKVDKKV[letters of human IgG1 Fc omitted]
light: DIQMTQSPSSLSASVGDRVTITCKASQNVGNNIAWYQQKPGKAPKLLIYYASNRYTGVPSRFSGSGYGTDFTLTISSLQPEDFATYYCQRLYNSPFTFGGGTKVEIKRTVAAPSVFIFPPSDEQLKSGTASVVCLLNNFYPREAKVQWKVDNALQSGNSQESVTEQDSKDSTYSLSSTLTLSKADYEKHKVYACEVTHQGLSSPVTKSFNRGEC
With B2 the “IC50 (ng Ab/mL), OVCAR3” value [1] was 254 ng Ab/mL, the tumor volume ([2]; DAY 4, dose 1 mg/kg intravenously Q4d×4) was 546 mm^3 and the tumor volume ([2]; DAY 4, dose 3 mg/kg intravenously Q4d×4) was 545 mm^3. For the same molecule, the tumor volume ([2]; DAY 4, dose 10 mg/kg intravenously Q4d×4) was 468 mm^3, the tumor volume ([2]; DAY 8, dose 1 mg/kg intravenously Q4d×4) was 563 mm^3 and the tumor volume ([2]; DAY 8, dose 3 mg/kg intravenously Q4d×4) was 511 mm^3. The tumor volume ([2]; DAY 8, dose 10 mg/kg intravenously Q4d×4) was 351 mm^3, the tumor volume ([2]; DAY 11, dose 1 mg/kg intravenously Q4d×4) was 582 mm^3 and the tumor volume ([2]; DAY 11, dose 3 mg/kg intravenously Q4d×4) was 544 mm^3. For the same molecule, the tumor volume ([2]; DAY 11, dose 10 mg/kg intravenously Q4d×4) was 316 mm^3, the tumor volume ([2]; DAY 14, dose 1 mg/kg intravenously Q4d×4) was 667 mm^3 and the tumor volume ([2]; DAY 14, dose 3 mg/kg intravenously Q4d×4) was 558 mm^3. It also gave a tumor volume ([2]; DAY 14, dose 10 mg/kg intravenously Q4d×4) of 269 mm^3, a tumor volume ([2]; DAY 18, dose 1 mg/kg intravenously Q4d×4) of 638 mm^3 and a tumor volume ([2]; DAY 18, dose 3 mg/kg intravenously Q4d×4) of 494 mm^3. It also gave a tumor volume ([2]; DAY 21, dose 1 mg/kg intravenously Q4d×4) of 709 mm^3, a tumor volume ([2]; DAY 21, dose 3 mg/kg intravenously Q4d×4) of 534 mm^3 and a tumor volume ([2]; DAY 21, dose 10 mg/kg intravenously Q4d×4) of 192 mm^3. The tumor volume ([2]; DAY 25, dose 1 mg/kg intravenously Q4d×4) was 750 mm^3, the tumor volume ([2]; DAY 25, dose 3 mg/kg intravenously Q4d×4) was 628 mm^3 and the tumor volume ([2]; DAY 28, dose 1 mg/kg intravenously Q4d×4) was 763 mm^3. For the same molecule, the tumor volume ([2]; DAY 28, dose 3 mg/kg intravenously Q4d×4) was 645 mm^3, the tumor volume ([2]; DAY 28, dose 10 mg/kg intravenously Q4d×4) was 244 mm^3 and the tumor volume ([2]; DAY 33, dose 1 mg/kg intravenously Q4d×4) was 991 mm^3. For the same molecule, the tumor volume ([2]; DAY 33, dose 3 mg/kg intravenously Q4d×4) was 730 mm^3, the tumor volume ([2]; DAY 33, dose 10 mg/kg intravenously Q4d×4) was 267 mm^3 and the tumor volume ([2]; DAY 36, dose 3 mg/kg intravenously Q4d×4) was 850 mm^3. For the same molecule, the tumor volume ([2]; DAY 36, dose 10 mg/kg intravenously Q4d×4) was 300 mm^3, the tumor volume ([2]; DAY 39, dose 3 mg/kg intravenously Q4d×4) was 881 mm^3 and the tumor volume ([2]; DAY 39, dose 10 mg/kg intravenously Q4d×4) was 323 mm^3. For the same molecule, the tumor volume ([2]; DAY 42, dose 3 mg/kg intravenously Q4d×4) was 1020 mm^3, the tumor volume ([2]; DAY 42, dose 10 mg/kg intravenously Q4d×4) was 350 mm^3 and the tumor volume ([3]; Day 4, 10 mg/kg iv Q4dx4) was 205 mm^3. It also gave a tumor volume ([3]; Day 7, 10 mg/kg iv Q4dx4) of 195 mm^3, a tumor volume ([3]; Day 11, 10 mg/kg iv Q4dx4) of 147 mm^3 and a tumor volume ([3]; Day 14, 10 mg/kg iv Q4dx4) of 118 mm^3. It also gave a tumor volume ([3]; Day 18, 10 mg/kg iv Q4dx4) of 93 mm^3, a tumor volume ([3]; Day 21, 10 mg/kg iv Q4dx4) of 98 mm^3 and a tumor volume ([3]; Day 25, 10 mg/kg iv Q4dx4) of 93 mm^3. It also gave a tumor volume ([3]; Day 28, 10 mg/kg iv Q4dx4) of 99 mm^3, a tumor volume ([3]; Day 32, 10 mg/kg iv Q4dx4) of 165 mm^3 and a tumor volume ([3]; Day 35, 10 mg/kg iv Q4dx4) of 229 mm^3. The tumor volume ([3]; Day 39, 10 mg/kg iv Q4dx4) was 294 mm^3, the tumor volume ([3]; Day 42, 10 mg/kg iv Q4dx4) was 318 mm^3 and the tumor volume ([3]; Day 46, 10 mg/kg iv Q4dx4) was 412 mm^3. It also gave a tumor volume ([3]; Day 49, 10 mg/kg iv Q4dx4) of 521 mm^3, a tumor volume ([3]; Day 53, 10 mg/kg iv Q4dx4) of 629 mm^3 and a tumor volume ([3]; Day 56, 10 mg/kg iv Q4dx4) of 808 mm^3. The tumor volume ([3]; Day 60, 10 mg/kg iv Q4dx4) was 917 mm^3, the tumor volume ([3]; Day 63, 10 mg/kg iv Q4dx4) was 917 mm^3 and the tumor volume ([3]; Day 67, 10 mg/kg iv Q4dx4) was 1116 mm^3. The tumor volume ([3]; Day 70, 10 mg/kg iv Q4dx4) was 1181 mm^3, the tumor volume ([3]; Day -1, 10 mg/kg iv Q4dx4) was 183 mm^3 and the “IC50 (ng Ab/mL), HCC2429” value [4] was 214 ng Ab/mL and 630 ng Ab/mL.
